Experimental data published in patent US20240239788A1, “SMALL MOLECULE INHIBITORS OF KRAS G12D MUTANT” (Merck Sharp & Dohme LLC, priority 2021, published 2024).

Chains of the proteins cited; added tags and fusions are not shown. A line that says so, or that is headed by a name, gives the form on record, which may keep a tag or linker. Residues count along the entry.
UniProt P01116, 2-164 with tags or gaps G12D limits assumed: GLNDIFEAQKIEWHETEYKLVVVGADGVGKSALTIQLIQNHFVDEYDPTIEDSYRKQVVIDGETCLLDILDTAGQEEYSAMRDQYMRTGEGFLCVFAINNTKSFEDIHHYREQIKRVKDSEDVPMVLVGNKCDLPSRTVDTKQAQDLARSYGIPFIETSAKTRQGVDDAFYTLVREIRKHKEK

How the values were obtained:
[1] = biological target: KRAS protein containing G12D mutation (Homo sapiens (Human), UniProt P01116, G12D); assay: SOS-catalyzed nucleotide exchange assay (GNE), TR-FRET; details: read-out: IC50 (nM) (GNE); biotinylated KRAS G12D, SOS and GTP, 60-minute incubation
[2] = biological target: KRAS G12D / Ras binding domain of C-RAF (Homo sapiens (Human), UniProt P01116, G12D); assay: RAS:RAF-RBD binding assay (cRaf), TR-FRET; details: read-out: IC50 (nM) (cRaf); biotinylated KRAS G12D, GST-C-RAF RBD
[3] = test system: AsPC-1 cells containing homozygous KRAS-G12D activating mutation; assay: Cellular phospho-ERK assay (Examples 1a-106); details: read-out: IC50 (nM) pERK (Cell), 2 hours, ratio of p-Erk vs total Erk

For `C[C@H]1N[C@H]2CC[C@@H]1N(c1nc(OCC3(CN(C)C)CC3)nc3c(F)c(-c4cc(O)cc5ccccc45)c(Cl)cc13)C2`, the IC50 [1] was 117 nM, the IC50 [2] was 1790 nM and the IC50 [3] was 2540 nM.

`CC1C2CCC(CN2)N1c1nc(OCC2(CN(C)C)CC2)nc2c(F)c(-c3cc(O)cc4ccccc34)c(Cl)cc12` (single isomer, unassigned) [8b] showed an IC50 [1] of 2180 nM and an IC50 [3] of 12300 nM.

With `CC1C2CCC(CN2)N1c1nc(OCC2(CN(C)C)CC2)nc2c(F)c(-c3cc(O)cc4ccccc34)c(Cl)cc12` (single isomer, unassigned) [8a] the IC50 [1] was 7000 nM and the IC50 [3] was 22900 nM.
